Earlier results, collected in patent US5389645A, “Substituted tyrosyl diamine amide compounds” (G. D. Searle & Co., priority 1992, dated 1995).

Test system: opioid receptors, designated μ, κ and δ
Conditions: cited from earlier work

C=CCN1CC[C@]23c4c5ccc(O)c4O[C@H]2C(=O)CC[C@@]3(O)[C@H]1C5 [naloxone]
binding affinity for all three categories of opioid receptors: bind with high affinity to all three categories of opioid receptors
